Earlier results as cited in patent publication USRE32935E, “Non-toxic organotin stabilizers for vinyl chloride polymers” (M&T Chemicals, Inc., priority 1985, dated 1989).

System: rats
Settings: force-feeding, table of Neumann; cited from earlier work

In the case of tri-n-octyltin laurate, the “LD50 (lethal dose for 1/2 the population)” value is listed as “greater than 6,000 mg per kilogram of body weight”.
